Earlier results in patent US20120322745A1, “OPTIMIZED METHOD FOR OBTAINING ACE ACTIVITY INHIBITORY PEPTIDES FROM WHEY, ACE INHIBITORY PEPTIDES AND FOOD COMPRISING THEM” (QUEIZUAR ,S.L., priority 2011, published 2012).

The chains behind the UniProt entries cited, without tags or fusion partners. Where a name states a change or a piece, a line headed by the entry shows the natural chain unless it says otherwise.
UniProt P02769: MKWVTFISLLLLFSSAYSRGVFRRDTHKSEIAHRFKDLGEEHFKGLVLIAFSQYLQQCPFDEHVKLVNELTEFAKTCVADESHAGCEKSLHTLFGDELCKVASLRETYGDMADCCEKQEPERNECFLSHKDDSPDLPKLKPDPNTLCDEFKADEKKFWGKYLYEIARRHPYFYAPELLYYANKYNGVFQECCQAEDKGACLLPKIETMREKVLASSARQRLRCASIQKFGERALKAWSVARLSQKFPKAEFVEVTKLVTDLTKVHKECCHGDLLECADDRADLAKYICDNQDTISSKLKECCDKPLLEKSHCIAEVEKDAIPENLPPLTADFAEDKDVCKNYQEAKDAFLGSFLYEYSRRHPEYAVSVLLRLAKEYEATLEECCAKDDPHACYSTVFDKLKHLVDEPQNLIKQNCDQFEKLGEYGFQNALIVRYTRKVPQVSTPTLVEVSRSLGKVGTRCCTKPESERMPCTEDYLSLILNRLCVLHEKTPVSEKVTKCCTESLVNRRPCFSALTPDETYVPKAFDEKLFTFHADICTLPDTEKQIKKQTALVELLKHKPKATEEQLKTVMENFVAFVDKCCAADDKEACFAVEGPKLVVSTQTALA

Molecular target: angiotensin converting enzyme (ACE)
Settings: ACE inhibitory peptides obtained by enzymatic hydrolysis of whey proteins

- pIC50: 3.50
Substance: BSA f(221-222): ACE inhibitory peptide, sequence FP, from whey protein hydrolysis with proteinase k (KF; UniProt P02769 245-246, looked up, fragment)

pIC50: −log10 of the molar value.
